From US9567341B2, “Pyrrolopyrimidine derivatives as NR2B NMDA receptor antagonists” (Rugen Holdings (Cayman) Limited, priority 2014, dated 2017)
This is a selection: effects in other tests are not listed, and their absence says nothing.

Amino acid sequences for entries named in this document (tags omitted). Residues count along the entry.
UniProt Q12879, 23-1464 limits assumed: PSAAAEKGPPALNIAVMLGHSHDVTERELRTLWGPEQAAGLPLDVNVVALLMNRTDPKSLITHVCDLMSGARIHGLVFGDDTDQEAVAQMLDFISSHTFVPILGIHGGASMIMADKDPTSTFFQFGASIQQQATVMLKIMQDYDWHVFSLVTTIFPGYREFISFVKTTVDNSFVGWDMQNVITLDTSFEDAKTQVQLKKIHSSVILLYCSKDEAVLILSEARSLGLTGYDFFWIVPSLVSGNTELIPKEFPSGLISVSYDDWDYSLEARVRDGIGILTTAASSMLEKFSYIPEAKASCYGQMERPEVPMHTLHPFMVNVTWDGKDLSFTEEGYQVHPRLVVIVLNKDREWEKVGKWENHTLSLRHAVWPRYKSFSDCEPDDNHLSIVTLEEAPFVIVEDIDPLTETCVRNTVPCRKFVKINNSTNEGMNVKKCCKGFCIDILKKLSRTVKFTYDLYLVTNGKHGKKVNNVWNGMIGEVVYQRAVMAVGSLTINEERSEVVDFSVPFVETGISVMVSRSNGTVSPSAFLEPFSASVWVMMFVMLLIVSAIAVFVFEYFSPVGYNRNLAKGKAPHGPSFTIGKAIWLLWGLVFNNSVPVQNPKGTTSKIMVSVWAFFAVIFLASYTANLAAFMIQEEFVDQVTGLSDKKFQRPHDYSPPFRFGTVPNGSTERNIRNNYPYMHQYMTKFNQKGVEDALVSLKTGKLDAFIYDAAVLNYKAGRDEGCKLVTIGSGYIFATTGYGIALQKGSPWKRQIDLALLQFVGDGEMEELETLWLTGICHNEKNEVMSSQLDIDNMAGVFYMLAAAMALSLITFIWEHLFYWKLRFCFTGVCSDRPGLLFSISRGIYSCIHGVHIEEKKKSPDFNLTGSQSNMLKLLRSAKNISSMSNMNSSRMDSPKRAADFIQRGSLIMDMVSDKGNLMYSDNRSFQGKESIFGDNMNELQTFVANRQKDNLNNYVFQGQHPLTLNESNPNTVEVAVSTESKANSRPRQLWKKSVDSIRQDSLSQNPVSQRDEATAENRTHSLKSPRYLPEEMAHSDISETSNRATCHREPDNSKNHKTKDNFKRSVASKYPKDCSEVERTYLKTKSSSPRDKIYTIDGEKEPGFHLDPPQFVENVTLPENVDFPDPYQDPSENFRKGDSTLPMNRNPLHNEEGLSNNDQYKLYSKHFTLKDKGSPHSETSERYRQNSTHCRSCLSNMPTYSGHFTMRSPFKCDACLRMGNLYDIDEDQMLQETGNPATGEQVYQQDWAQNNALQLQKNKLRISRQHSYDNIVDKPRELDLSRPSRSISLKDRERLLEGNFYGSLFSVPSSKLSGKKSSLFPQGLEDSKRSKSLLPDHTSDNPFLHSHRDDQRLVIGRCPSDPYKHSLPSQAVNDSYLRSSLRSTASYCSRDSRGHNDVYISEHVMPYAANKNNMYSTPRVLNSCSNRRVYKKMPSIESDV

Target: human NR1/NR2A (Homo sapiens (Human), UniProt Q12879)
Test: NR2A activity (Fluo-4 calcium influx assay)
Format: cell-based
Settings: read-out: NR2A IC50; HEK293 cells stably expressing human NR1/NR2A; glutamate 100 μM, glycine 50 μM

Substance: N-(1-(2,2-difluoro-2-(pyridin-2-yl)ethyl)piperidin-4-yl)-7H-pyrrolo[2,3-d]-pyrimidin-4-amine
- IC50: > 10 µM
